This note sets out measurements from PMC8245773, “Brevibacillin 2V, a Novel Antimicrobial Lipopeptide With an Exceptionally Low Hemolytic Activity” (Frontiers in Microbiology, 2021).

SMILES strings stand for the structures.

In the assay the test system is K. pneumoniae LMG20218. The assay is described as follows: Synergy assay, checkerboard method. Conditions: synergistic ≤0.5.

With `CO[C@H]1/C=C/O[C@@]2(C)Oc3c(C)c(O)c4c(O)c(c(/C=N/N5CCN(C)CC5)c(O)c4c3C2=O)NC(=O)/C(C)=C\C=C\[C@H](C)[C@H](O)[C@@H](C)[C@@H](O)[C@@H](C)[C@H](OC(C)=O)[C@@H]1C` [Rifampicin], the FICI was 0.266 (antibiotic + brevibacillin I) and 0.266 (antibiotic + brevibacillin V).
